Target: intermediate conductance, calcium activated potassium channel (Gardos channel) in red blood cells (Homo sapiens, UniProt O15554)
Experiment: 86Rb flux assay for inhibition of the Gardos channel in red blood cells (Example 4)
Details: CaCl2 and A23187
Experimental: Activities for selected compounds of the invention were determined using the assay set forth in Example 4, and are presented in Table 1.
Example 4 illustrates the use of a rubidium flux assay to determine the activity of the compounds of the invention.
Example 4 describes a bioassay for measuring the inhibition of a calcium activated potassium channel, the Gardos channel, in red blood cells by the compounds of the invention.
Heparinized whole blood was washed three times with Modified Flux Buffer (MFB: 140 mM NaCl; 5 mM KCl; 10 mM Tris; 0.1 mM EGTA; pH=7.4). Red blood cells (“RBCs”) at an approximate 10% hematocrit. Washed cells were then incubated for 3 hours with ^86Rb (5 μCi/mL). After this incubation period, the RBCs were washed three times with cold MFB. Washed ^86Rb loaded RBCs were then incubated with a test compound of the invention for 10 minutes. ^86Rb flux was then initiated by the addition of 10 μL/mL of a MFB solution containing 10 mM CaCl2 and 100 μM A23187, a calcium ionophore. This yielded a final concentration of 100 μM CaCl2 and […] A23187 n the incubation medium. Cells were incubated for 10 minutes, spun down and the supernatant was removed. Samples were counted in a Wallace Microbeta liquid scintillation counter by Cerenkov emission. Total RBC ^86Rb content was determined by lysing the RBCs with water and then precipitating protein using a 50:50 mixture of ethanol:chloroform. After a 20 minute microfuge spin, the aqueous and organic layers separated and the aqueous layer was removed and counted. Efflux is expressed as a percentage of the initial cell content of ^86Rb.

Sequences of proteins named here, by UniProt entry; tags and fusion partners are left off.
UniProt O15554, whole entry: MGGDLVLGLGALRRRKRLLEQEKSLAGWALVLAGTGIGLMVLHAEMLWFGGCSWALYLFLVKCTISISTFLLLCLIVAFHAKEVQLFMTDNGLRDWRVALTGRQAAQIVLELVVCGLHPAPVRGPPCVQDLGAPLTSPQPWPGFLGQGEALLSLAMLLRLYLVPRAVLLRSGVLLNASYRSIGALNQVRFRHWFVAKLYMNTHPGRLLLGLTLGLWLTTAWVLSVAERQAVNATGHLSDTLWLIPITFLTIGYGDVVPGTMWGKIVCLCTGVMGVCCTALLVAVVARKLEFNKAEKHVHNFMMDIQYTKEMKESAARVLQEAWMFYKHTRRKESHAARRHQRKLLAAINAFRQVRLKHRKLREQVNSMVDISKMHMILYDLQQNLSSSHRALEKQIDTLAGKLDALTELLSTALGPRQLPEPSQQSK

SMILES | Activity (relative potencies in the intermediate conductance, calcium activated potassium channel blocker assay, IC50 class)
COC(=O)c1cc(Cl)ccc1NS(=O)(=O)c1ccc(Cl)c(Cl)c1 | + (+ Represents 10 μM < IC50 < 2 μM)
COC(=O)c1cc(Cl)ccc1NS(=O)(=O)c1cccc(C(F)(F)F)c1 | ++ (++ represents 2 μM < IC50 < 0.5 μM)
CN(C)c1ccc(NS(=O)(=O)c2cccc(C(F)(F)F)c2)c(-c2ncco2)c1 | ++ (++ represents 2 μM < IC50 < 0.5 μM)

The next lines start with the values.

Activity (relative potencies in the intermediate conductance, calcium activated potassium channel blocker assay, IC50 class) | SMILES
++ (++ represents 2 μM < IC50 < 0.5 μM) | O=S(=O)(Nc1ccccc1-c1nnco1)c1cccc(C(F)(F)F)c1
++ (++ represents 2 μM < IC50 < 0.5 μM) | CCOc1ccc(NS(=O)(=O)c2cccc(C(F)(F)F)c2)c(-c2ncco2)c1
+ (+ Represents 10 μM < IC50 < 2 μM) | COC(=O)c1sccc1NS(=O)(=O)c1ccc(C(F)(F)F)cc1

Same assay, conditions: read-out: Activity (relative potencies in the intermediate conductance, calcium activated potassium channel blocker assay, IC50 class), CaCl2 and A23187

SMILES | IC50 [µM]
COc1cc(NS(=O)(=O)c2cccc(C(F)(F)F)c2)c(-c2ncco2)cc1OC | < 0.5
O=S(=O)(Nc1ccccc1C1=NCCO1)c1cccc(C(F)(F)F)c1 | < 0.5
CCOC(=O)c1ccccc1NS(=O)(=O)c1cccc(C(F)(F)F)c1 | < 0.5
